The experiment deals with CDK2 (UniProt P24941). Kind of experiment: Enzyme Assay.

≈ marks a conversion by molar mass, not a printed value.

The compound `CC(C)n1cnc2c(NCc3ccc(F)cc3)nc(NCCN)nc21` displayed an IC50 of 0.17 µg/mL (≈ 0.495 µM).
